Values of other authors as cited in US20120095019A1 (priority 2010, published 2012).

Details: not told; cited from earlier work

For CC(=O)N1CCN(c2ccc(OCC3COC(Cn4ccnc4)(c4ccc(Cl)cc4Cl)O3)cc2)CC1 (stereo not shown) [ketoconazole], the permeability is given as “high permeability”.
